Values quoted from earlier work, collected in patent EP0866709B1, “1,2,4-BENZOTRIAZINE OXIDES FORMULATIONS” (priority 1995, dated 1997).
Read-outs that look alike come from different tables or passages of the source.

How the values were obtained:
hypoxic cells [1] = conditions: Rodent; in vitro; drug concentration required under aerobic vs. hypoxic conditions for equivalent cell killing; cited from earlier work
hypoxic cells [2] = conditions: Human; in vitro; drug concentration required under aerobic vs. hypoxic conditions for equivalent cell killing; cited from earlier work

Mitomycin C
Hypoxic Cytotoxicity Ratio (hypoxic cells [1]): 1-5 | Hypoxic Cytotoxicity Ratio (hypoxic cells [2]): 1-2
